Legend:
[1] = target: T1, rat PACAP receptor protein Type I-A (pRPR3-A) (Rattus norvegicus, UniProt P32215); test: Intracellular cyclic AMP of rat PACAP receptor cDNA-introduced CHO cells, strain A12; format: cell-based; settings: CHO strain A12, 37° C., 40 minutes, 0.5 mM IBMX, FIG. 43
T1 construct: pRPACAPR46 and pRPACAPR5 were recombined at the BamHI site to prepare pRPACAPR46-5 having a complete translation frame; expressed in transfected cells; host or cells: CHO cells, pRPR3-A (pRc/CMV); clone A12 for cAMP
T1 sequence (P32215 20-467 isoform P32215-5 limits assumed): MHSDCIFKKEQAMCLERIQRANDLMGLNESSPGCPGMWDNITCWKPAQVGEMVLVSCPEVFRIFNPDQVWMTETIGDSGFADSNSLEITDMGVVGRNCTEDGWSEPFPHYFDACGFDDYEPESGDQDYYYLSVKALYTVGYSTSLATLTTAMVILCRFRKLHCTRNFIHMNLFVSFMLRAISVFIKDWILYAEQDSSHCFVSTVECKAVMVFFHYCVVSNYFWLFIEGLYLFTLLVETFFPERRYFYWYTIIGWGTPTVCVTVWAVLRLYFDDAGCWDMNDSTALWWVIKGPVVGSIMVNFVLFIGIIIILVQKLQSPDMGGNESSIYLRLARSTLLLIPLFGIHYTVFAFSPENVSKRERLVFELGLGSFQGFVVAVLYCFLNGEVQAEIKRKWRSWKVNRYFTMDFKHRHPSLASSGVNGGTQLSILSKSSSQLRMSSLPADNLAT
Experimental: (§1) From the binding experiment with [^125I]-PACAP27 of (3) described above, using CHO strains A12 and B17 highly producing rat PACAP receptor protein, the production promotion of intracellular cyclic AMP with PACAPs was detected in the following manner. Each 48-well plate for tissue culture was inoculated with each of the cell strains. at a density of 1.0×10^5 cells/well, followed by cultivation for 3 days. The plate was washed twice with Ham's F12 medium supplemented with 0.1% BSA and 0.5 mM IBMX, and 500 μl/well of the same medium was added thereto. PACAP27, PACAP38 or VIP having each concentration was added thereto in a 1/100 amount, followed by standing at 37° C. for 40 minutes. The supernatant was removed, and extraction was conducted with 100% cold ethanol. The extract was evaporated to dryness with a centrifugal freeze dryer, and redissolved in the buffer attached to an EIA kit for assaying cyclic AMP (Amersham). Then, the amount of cyclic AMP was assayed according to the formulation of the kit.

[2] = target: T2, Bovine PACAP receptor protein (Bos taurus, UniProt Q29627); test: Intracellular inositol phosphate of bovine PACAP receptor cDNA-expressed CHO cells; format: cell-based; settings: 37° C., 20 minutes, FIG. 37
T2 construct: The complete primary structure of bovine PACAP receptor protein based on pBPR-T was deduced; expressed in transfected cells; host or cells: CHO cells, pBPR-T in pRc/CMV, G-418 selected
T2 sequence (Q29627 38-513): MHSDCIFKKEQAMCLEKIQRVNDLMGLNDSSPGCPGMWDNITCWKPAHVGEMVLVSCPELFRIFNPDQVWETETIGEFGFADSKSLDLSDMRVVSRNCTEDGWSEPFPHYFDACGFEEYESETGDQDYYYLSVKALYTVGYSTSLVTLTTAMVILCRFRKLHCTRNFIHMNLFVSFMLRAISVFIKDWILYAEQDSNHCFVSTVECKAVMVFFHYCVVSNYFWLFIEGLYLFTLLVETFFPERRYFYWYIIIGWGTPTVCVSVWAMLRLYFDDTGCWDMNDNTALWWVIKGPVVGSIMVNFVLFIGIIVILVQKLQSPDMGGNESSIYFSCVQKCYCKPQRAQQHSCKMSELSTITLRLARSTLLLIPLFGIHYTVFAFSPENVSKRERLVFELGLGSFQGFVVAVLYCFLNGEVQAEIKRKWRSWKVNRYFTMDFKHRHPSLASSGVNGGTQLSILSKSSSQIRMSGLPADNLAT
Experimental: The pathway of signal transmission of inositol phosphate well known as the pathway of signal transmission together with cyclic AMP was examined. […] One hundred microliters of 20% perchloric acid was added thereto to stop the reaction, and intracellular inositol phosphate was extracted. The extract was neutralized with 1.5 M KOH. All inositol phosphate was separated from free inositol by the use of ion exchange chromatography (AGI-X8, Bio RAD). Thereafter, inositol phosphate was eluted with 1 M ammonium formate/0.1 M formic acid, and the amount of inositol phosphate was measured with a scintillation counter.

[3] = target: T2, Bovine PACAP receptor protein; test: Competitive binding experiment, membrane fraction of bovine PACAP receptor cDNA (pBPR-T)-expressed CHO cells; settings: 100 pM [125I]-PACAP27, 25° C., 75 minutes, FIG. 35
Experimental: The transformants (CHO cells) cultivated for 3 days after subculture were separated using 0.2 mM EDTA/phosphate buffer, and suspended in 10 mM sodium carbonate buffer supplemented with 1 mM EDTA, 0.5 mM phenylmethylsulfonyl fluoride (PMSA), 20 μg/ml leupeptin, 4 μg/ml E-64 and 1 μg/ml pepstatin. The suspended cells were disrupted with a Polytron homogenizer (Kinematica). The disrupted product was centrifuged with a high speed cooling centrifuge (CR26H, Roter RR18, Hitachi, Ltd.) at 3,000 rpm for 10 minutes to obtain a supernatant. The resulting supernatant was further ultracentrifuged with an ultracentrifuge (SCP70H, Roter RPZ35T, Hitachi, Ltd.) at 30,000 rpm for 60 minutes to obtain pellets. The resulting pellets were suspended in a buffer [20 mM Tris-HCl (pH 7.4), 0.25 M sucrose, 2 mM EDTa, 0.5 mM PMSF, 20 μg/ml leupeptin and 1 μg/ml pepstatin] to prepare a membrane fraction suspension.
Bound ligands were separated from free ligands through a glass fiber filter. […] The binding was examined with a a γ-ray counter. The dissociation constant and the maximum binding were examined by Scatchard plot analysis (FIG. 34).

[4] = target: T3, purified bovine PACAP receptor protein (Bos taurus, UniProt Q29627); test: Competitive binding experiment for the purified PACAP receptor protein with [125I]PACAP27; settings: vs 100 pM [125I]PACAP27, FIG. 31
T3 construct: from tissue; host or cells: bovine cerebrum
T3 sequence (Q29627 38-513): T2 sequence (Q29627 38-513)
Experimental: (§2) The test sample (membrane fraction or solubilized membrane protein fraction) was appropriately diluted with buffer D (20 mM Tris, 5 mM magnesium chloride, 0.1% BSA and 0.05% digitonin, pH 7.4). […] To 0.1 ml of this reaction solution, 1.5 ml of buffer E (0.1% BSA, 0.05% CHAPS, 20 mM Tris and 5 mM magnesium chloride, pH 7.4) cooled with ice was added, and immediately, the mixed solution is filtered through a glass fiber filter. […] Results of the saturation binding experiment were subjected to Scatchard plot analysis to determine the dissociation constant and the maximum binding.
Analysis results obtained by polyacrylamide electrophoresis for the final purified sample in the presence of sodium dodecylsulfate are shown in FIG. 28. […] This protein having a molecular weight of about 57,000 is the PACAP receptor protein occurring in the bovine cerebrums.

[5] = target: T4, human PACAP receptor protein (Homo sapiens, UniProt P41586); test: Intracellular cyclic AMP of human PACAP receptor protein-expressed CHO-K1 cells; format: cell-based
T4 construct: expressed in transfected cells; host or cells: CHO-K1 cells (ICN), pTS849 (pRc/CMV), G-418 selected
T4 sequence (P41586 21-468): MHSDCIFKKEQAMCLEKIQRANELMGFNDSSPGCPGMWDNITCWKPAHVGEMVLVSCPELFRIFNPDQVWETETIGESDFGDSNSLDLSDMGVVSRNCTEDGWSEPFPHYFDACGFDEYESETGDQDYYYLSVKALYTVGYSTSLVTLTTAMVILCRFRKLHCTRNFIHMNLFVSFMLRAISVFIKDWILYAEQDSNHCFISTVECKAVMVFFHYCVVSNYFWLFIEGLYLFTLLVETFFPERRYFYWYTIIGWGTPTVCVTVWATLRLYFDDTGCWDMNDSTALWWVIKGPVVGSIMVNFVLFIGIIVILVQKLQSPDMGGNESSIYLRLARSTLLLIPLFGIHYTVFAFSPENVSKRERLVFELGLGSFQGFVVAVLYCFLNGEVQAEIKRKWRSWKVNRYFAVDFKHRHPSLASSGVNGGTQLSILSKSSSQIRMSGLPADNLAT
Experimental: After washing twice with Hank's buffer containing the culture buffer, 10 mM HEPES and 0.05% BSA, the CHO-K1 cells were cultivated in the above-mentioned buffer supplemented with 0.2 mM 3-isobutyl-1-methylxanthine at 37° C. for 60 minutes. […] After absorption of the buffer, the cells were washed twice with the culture buffer. Then, cAMP was extracted from the cells with 20% perchloric acid. After transfer to a 1.5-ml Eppendorf tube, the extract was centrifuged with a Tomy microcentrifuge at 12,000 rpm for 5 minutes, and the supernatant was neutralized with 1.5 N KOH/60 mM HEPES to prepare a cell eluted solution. The concentration of cyclic AMP was determined by the acetylation method of a cAMP assay system (Amersham). Under these determination conditions, when nothing was added, the amount of intracellular CAMP was 0.7 pmole/well.

[6] = target: T5, rat PACAP receptor protein Type I-B (pRPR4-B) (Rattus norvegicus, UniProt P32215); test: Intracellular cyclic AMP of rat PACAP receptor cDNA-introduced CHO cells, strain B17; format: cell-based; settings: CHO strain B17, 37° C., 40 minutes, 0.5 mM IBMX, FIG. 43
T5 construct: two kinds of complete primary structures of rat PACAP receptor protein were deduced; expressed in transfected cells; host or cells: CHO cells, pRPR4-B (pRc/CMV); clone B17 for cAMP
T5 sequence (P32215 20-495 isoform P32215-2 limits assumed): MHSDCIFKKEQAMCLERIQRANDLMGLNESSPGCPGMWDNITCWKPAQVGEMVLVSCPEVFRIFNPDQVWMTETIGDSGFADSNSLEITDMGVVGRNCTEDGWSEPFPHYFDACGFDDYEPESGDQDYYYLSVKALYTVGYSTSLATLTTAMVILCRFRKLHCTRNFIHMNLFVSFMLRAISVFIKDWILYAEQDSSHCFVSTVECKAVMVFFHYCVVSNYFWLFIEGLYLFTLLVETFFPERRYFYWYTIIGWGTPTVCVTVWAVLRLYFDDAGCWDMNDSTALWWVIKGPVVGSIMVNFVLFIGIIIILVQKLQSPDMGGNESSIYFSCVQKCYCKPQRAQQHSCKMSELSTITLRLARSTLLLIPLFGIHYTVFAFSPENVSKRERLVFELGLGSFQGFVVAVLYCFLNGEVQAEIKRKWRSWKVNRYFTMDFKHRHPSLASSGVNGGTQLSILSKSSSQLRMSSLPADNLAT
Experimental: as §1

[7] = target: T2, Bovine PACAP receptor protein; test: Intracellular cyclic AMP production of bovine PACAP receptor cDNA-expressed CHO cells; format: cell-based; settings: 37° C., 30 minutes, 0.2 mM 3-isobutyl-1-methylxanthine, FIG. 36
[8] = target: T4, human PACAP receptor protein; test: Competitive inhibition experiment, membrane fraction of human PACAP receptor-expressed CHO-K1 cells; format: binding; settings: FIG. 47
Experimental: as §2

[9] = 0.1 mM added, basal 0.7 pmole/well

## PACAP38: pituitary adenylate cyclase activating polypeptide consisting of 38 amino acid residues, SEQ ID NO: 46-NH2
[1]
  production of intracellular cyclic AMP: promoted the production of intracellular cyclic AMP, depending on the concentrations
[2]
  concentration of inositol phosphate: increased depending on the concentrations
[3]
  reactivity (competition with [125I]-PACAP27): high reactivity
[4]
  reaction with purified PACAP receptor protein in competitive binding experiment: reacting
[5]; [9]
  accumulation of cyclic AMP: about 21 pmoles/well
  accumulation of cyclic AMP relative to the basal level: about 30 times the basal level
[5]; 37° C., 30 minutes, 0.2 mM 3-isobutyl-1-methylxanthine, FIG. 48
  concentration of intracellular cAMP: increased depending on the concentrations
[6]
  production of intracellular cyclic AMP: promoted the production of intracellular cyclic AMP, depending on the concentrations
[7]
  concentration of intracellular cyclic AMP: increased depending on the concentrations
[8]
  competition with [125I]-PACAP27: competed

— patent publication US6399316B1, “PACAP receptor protein, method for preparing said protein, and use thereof” (Takeda Chemical Industries, Ltd., priority 1994, dated 2002)
